Chains of the proteins cited; added tags and fusions are not shown.
UniProt P35916, whole entry: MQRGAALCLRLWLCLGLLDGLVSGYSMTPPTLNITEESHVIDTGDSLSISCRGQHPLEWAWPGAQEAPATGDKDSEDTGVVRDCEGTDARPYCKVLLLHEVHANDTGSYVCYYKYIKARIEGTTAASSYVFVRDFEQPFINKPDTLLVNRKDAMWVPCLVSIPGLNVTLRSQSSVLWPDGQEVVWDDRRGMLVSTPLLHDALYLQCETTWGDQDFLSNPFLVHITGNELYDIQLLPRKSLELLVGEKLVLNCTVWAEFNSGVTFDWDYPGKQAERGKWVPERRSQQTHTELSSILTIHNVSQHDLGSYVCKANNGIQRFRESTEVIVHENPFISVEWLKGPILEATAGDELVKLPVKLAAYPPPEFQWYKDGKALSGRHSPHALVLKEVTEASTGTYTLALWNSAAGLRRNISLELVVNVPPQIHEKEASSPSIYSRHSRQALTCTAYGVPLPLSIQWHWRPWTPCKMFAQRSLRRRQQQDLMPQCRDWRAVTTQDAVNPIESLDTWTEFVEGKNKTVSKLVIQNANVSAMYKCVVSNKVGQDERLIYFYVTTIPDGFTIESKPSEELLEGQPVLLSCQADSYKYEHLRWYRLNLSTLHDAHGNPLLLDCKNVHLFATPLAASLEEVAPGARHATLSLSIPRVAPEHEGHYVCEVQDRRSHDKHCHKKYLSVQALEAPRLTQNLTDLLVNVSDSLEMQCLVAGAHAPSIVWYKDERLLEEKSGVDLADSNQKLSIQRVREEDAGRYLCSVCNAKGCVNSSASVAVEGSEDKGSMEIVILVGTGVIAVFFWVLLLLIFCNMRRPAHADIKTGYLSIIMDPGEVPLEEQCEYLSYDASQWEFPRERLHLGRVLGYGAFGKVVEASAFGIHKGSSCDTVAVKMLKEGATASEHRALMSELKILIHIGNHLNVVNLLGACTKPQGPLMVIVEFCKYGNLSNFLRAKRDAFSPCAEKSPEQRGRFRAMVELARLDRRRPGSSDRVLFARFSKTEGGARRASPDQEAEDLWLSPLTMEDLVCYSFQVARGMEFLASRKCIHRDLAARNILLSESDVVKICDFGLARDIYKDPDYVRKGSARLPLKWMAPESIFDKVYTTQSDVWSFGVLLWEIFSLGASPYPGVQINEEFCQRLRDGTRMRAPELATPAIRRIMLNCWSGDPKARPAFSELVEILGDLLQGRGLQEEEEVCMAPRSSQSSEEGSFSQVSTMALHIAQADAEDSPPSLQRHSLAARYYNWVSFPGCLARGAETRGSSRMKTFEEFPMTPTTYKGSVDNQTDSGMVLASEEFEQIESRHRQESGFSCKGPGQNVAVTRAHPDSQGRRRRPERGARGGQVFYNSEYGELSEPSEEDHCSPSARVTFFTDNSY

In ChEMBL document CHEMBL3425418, “Design, synthesis and biological evaluation of deuterated Tivozanib for improving pharmacokinetic properties” (Bioorg Med Chem Lett, 2015):

Target: Vascular endothelial growth factor receptor 3 (Homo sapiens, UniProt P35916)

**Q.** Which IC50 does the source give for `COc1cc2nccc(Oc3ccc(NC(=O)Nc4cc(C)on4)c(Cl)c3)c2cc1OC` [TIVOZANIB] here?
**A.** The IC50 was 3.11 nM.
